Tests used:
[1] = tested on: Human Peripheral Blood Mononuclear Cells (PBMC), mature IL-1β; test: PBMC cell assay: IL-1β assay with human peripheral blood mononuclear cells; details: read-out: PBMC IC50; LPS-stimulated human PBMC, mature IL-1β in supernatant by ELISA
Description: IL-1β Assay with a Mixed Population of Human Peripheral Blood Mononuclear Cells (PBMC) or Enriched Adherent Mononuclear Cells
Processing of pre-IL-1β by ICE can be measured in cell culture using a variety of cell sources. Human PBMC obtained from healthy donors provides a mixed population of lymphocyte subtypes and mononuclear cells that produce a spectrum of interleukins and cytokines in response to many classes of physiological stimulators. Adherent mononuclear cells from PBMC provides an enriched source of normal monocytes for selective studies of cytokine production by activated cells.
An initial dilution series of test compound in DMSO or ethanol is prepared, with a subsequent dilution into RPMI-10% FBS media (containing 2 mM L-glutamine, 10 mM HEPES, 50 U and 50 ug/ml pen/strep) respectively to yield drugs at 4× the final test concentration containing 0.4% DMSO or 0.4% ethanol. The final concentration of DMSO is 0.1% for all drug dilutions. A concentration titration which brackets the apparent Ki for a test compound determined in an ICE inhibition assay is generally used for the primary compound screen.
Generally 5-6 compound dilutions are tested and the cellular component of the assay is performed in duplicate, with duplicate ELISA determinations on each cell culture supernatant. […]

The chains behind the UniProt entries cited, without tags or fusion partners. Residues count along the entry.
UniProt P29466, 120-297 limits assumed: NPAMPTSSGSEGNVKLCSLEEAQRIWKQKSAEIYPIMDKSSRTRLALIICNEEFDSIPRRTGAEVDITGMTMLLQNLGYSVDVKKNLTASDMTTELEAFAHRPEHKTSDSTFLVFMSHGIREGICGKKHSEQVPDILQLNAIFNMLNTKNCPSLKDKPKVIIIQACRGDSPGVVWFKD
UniProt P29466, 317-404 limits assumed: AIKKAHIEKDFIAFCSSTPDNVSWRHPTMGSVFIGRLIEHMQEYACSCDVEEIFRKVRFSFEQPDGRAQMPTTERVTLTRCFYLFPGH

Caspase-1 = Caspase-1 (Homo sapiens, UniProt P29466); test: Caspase-1 enzyme inhibition (Ki); details: read-out: Caspase-1 Ki; substrate Suc-YVAD-pNA 80 μM, 37° C., pH 7.5
[2] = tested on: Human whole blood, IL-1β production; test: Whole blood assay for IL-1β production; details: read-out: Whole Blood IC50; LPS-stimulated whole blood, IL-1β by ELISA
Protocol: The whole blood assay is a simple method for measuring the production of IL-1β (or other cytokines) and the activity of potential inhibitors. The complexity of this assay system, with its full complement of lymphoid and inflammatory cell types, spectrum of plasma proteins and red blood cells is an ideal in vitro representation of human in vivo physiologic conditions.
Set incubator or water bath at 30° C. Aliquot 0.25 ml of blood into 1.5 ml eppendorf tubes. Note: be sure to invert the whole blood sample tubes after every two aliquots. Differences in replicates may result if the cells sediment and are not uniformly suspended. Use of a positive displacement pipette will also minimize differences between replicate aliquots.
Prepare drug dilutions in sterile pyrogen-free saline by serial dilution. A dilution series which brackets the apparent Ki for a test compound determined in an ICE inhibition assay is generally used for the primary compound screen. For extremely hydrophobic compounds, prepare compound dilutions in fresh plasma obtained from the same blood donor or in PBS-containing 5% DMSO to enhance solubility.
Add 25 μl test compound dilution or vehicle control and gently mix the sample. Then add 5.0 μl LPS solution (250 ng/ml stocked prepared fresh: 5.0 ng/ml final concentration LPS), and mix again. Incubate the tubes at […] in a water bath for 16-18 hr with occasional mixing. […]

## C[C@H](NC(=O)c1nccc2ccccc12)C(=O)N1CSC(C)(C)[C@H]1C(=O)N[C@H](C=O)CC(=O)O
[1]
  IC50: 500 to 1000 nM
Caspase-1
  Ki: < 10 nM
[2]
  IC50: 2500 to 7500 nM

## C[C@H](NC(=O)c1cccc2ccccc12)C(=O)N1CSC(C)(C)[C@H]1C(=O)N[C@H](C=O)CC(=O)O
[1]
  IC50: 500 to 1000 nM
Caspase-1
  Ki: < 10 nM
[2]
  IC50: 2500 to 7500 nM
